Assay results: publication PMC8704709, “Improved Anticancer Activities of a New Pentafluorothio-Substituted Vorinostat-Type Histone Deacetylase Inhibitor” (Pharmaceuticals, 2021)

System: DU145 cells
Assay: Western blot in DU145 cells (acetyl-H3, PARP, EGFR, P-mTOR)
Format: cell-based, human
Conditions: 24 h
Experimental: Western blots were performed as described earlier. Cells were seeded in 100 mm petri dishes, grown to almost confluency, treated for 24 h, washed and frozen, followed by lysis with RIPA Buffer, added with one cOmplete™ Mini protease Inhibitor tablet/10 mL (Roche), and quantification with Pierce^TM BCA Protein Assay Kit (Thermo Fisher Scientific). Thereafter protein levels were normalized to untreated controls so equal protein loading of 20 µg/lane. Laemmli Buffer and β-mercaptoethanol were added before probes were desaturated at 96 °C for 10 min. First, 7.5% or 12% SDS gels (Biorad, Munich, Germany) were loaded with proteins and electrophoresis was done. Thereafter, proteins were transferred to activated polyvinylidene difluoride membranes (PVDF) by electroblotting. Finally, the membranes were blocked with 1% BSA and incubated with primary antibodies over night at 4 °C.
Blots were washed three times with 1% TBS-Tween and incubated with anti-mouse or anti-rabbit peroxidase-coupled anti-IgG secondary antibodies (1:5000–1:10,000) at room temperature for 60 min. Subsequently, antibody bondage was illustrated using Clarity and Clarity Max ECL Western Blotting Substrates (Biorad, Munich, Germany) for detection and Celvin-S developer (Biostep, software SnapAndGo Vs 1.8.1) for development. […]

COc1cc2ncnc(Nc3ccc(F)c(Cl)c3)c2cc1OCCCN1CCOCC1 [gefitinib, reference compound] was tested. Which EGFR protein expression did it give?
The EGFR protein expression was “no EGFR-suppressing effects”.
